Measured values reported in patent publication US20250101534A1, “USE OF SPOP MUTATIONS AS A PREDICTIVE BIOMARKER” (Foundation Medicine, Inc., priority 2022, published 2025).
Where two headings read alike, the source gives them in different places.

Tested on: metastatic hormone-sensitive prostate cancer (mHSPC)
Settings: for median OS / median time to CRPC: in combination with ADT; for median time to CRPC: indexed from metastatic diagnosis
[1] = SPOP-mutated vs wild-type SPOP patients, Cox model adjusted for PSA and ECOG
[2] = patients with SPOP mutations, mHSPC

adjusted hazard ratio [HR], time to CRPC [1]: 0.81
time to CRPC and OS, SPOP-mutated compared with wild-type SPOP patients (in words) (mHSPC, FIGS. 2A-2D): No significant difference
time to CRPC and OS, TMPRSS2-ERG fusion positive compared with fusion negative patients (in words) (mHSPC, FIGS. 3A-3D): better time to CRPC and OS
median OS [2]: 26.9 months
median time to CRPC [2]: 18.5 months
median OS (wild-type SPOP patients, mHSPC): 33.5 months
median time to CRPC (wild-type SPOP patients, mHSPC): 15.7 months
Structure (SMILES): CC(=O)O[C@@]12CO[C@@H]1C[C@H](O)[C@@]1(C)C(=O)[C@H](O)C3=C(C)[C@@H](OC(=O)[C@H](O)[C@@H](NC(=O)OC(C)(C)C)c4ccccc4)C[C@@](O)([C@@H](OC(=O)c4ccccc4)[C@H]21)C3(C)C [docetaxel]
HR, overall survival [1]: 1.46
